Measurements published in US9505726B2, “Substituted biphenyl amides as P2X3 and P2X2/3 antagonists” (Roche Palo Alto LLC, priority 2009, dated 2016).

Target: T1, rat P2X3 receptor (Rattus norvegicus, UniProt P49654)
T1 construct: expressed in transfected cells; host or cells: CHO-K1
T1 sequence (P49654 1-397): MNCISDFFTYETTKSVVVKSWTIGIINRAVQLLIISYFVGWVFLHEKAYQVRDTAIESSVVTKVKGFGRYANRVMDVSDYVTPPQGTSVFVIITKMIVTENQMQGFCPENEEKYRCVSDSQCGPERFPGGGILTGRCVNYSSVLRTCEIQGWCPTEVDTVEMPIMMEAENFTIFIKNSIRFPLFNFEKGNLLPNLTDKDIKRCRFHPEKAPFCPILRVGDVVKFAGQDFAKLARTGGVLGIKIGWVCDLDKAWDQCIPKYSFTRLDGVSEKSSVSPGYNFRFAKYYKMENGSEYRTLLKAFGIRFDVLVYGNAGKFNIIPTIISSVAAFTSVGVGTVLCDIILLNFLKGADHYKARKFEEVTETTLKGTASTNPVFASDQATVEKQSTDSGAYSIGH
Assay: P2X3 FLIPR (Fluorometric Imaging Plate Reader) assay
Type: cell-based
Details: CHO-K1 cells transfected with cloned rat P2X3; agonist α,β-meATP 1 μM; Fluo-3 AM calcium fluorescence
Procedure: Representative compounds in accordance with the methods of the invention are shown in Table 1, with pIC50 values for the P2X3 receptor.
CHO-K1 cells were transfected with cloned rat P2X3 or human P2X2/3 receptor subunits and passaged in flasks. 18-24 hours before the FLIPR experiment, cells were released from their flasks, centrifuged, and resuspended in nutrient medium at 2.5×10^5 cells/ml. The cells were aliquoted into black-walled 96-well plates at a density of 50,000 cells/well and incubated overnight in 5% CO2 at 37° C. On the day of the experiment, cells were washed in FLIPR buffer (calcium- and magnesium-free Hank's balanced salt solution, 10 mM HEPES, 2 mM CaCl2, 2.5 mM probenecid; FB). […]
Test compounds (dissolved in DMSO at 10 mM and serially diluted with FB) or vehicle were added to each well (25 μl of a 4× solution) and allowed to equilibrate for 20 minutes at room temperature. The plates were then placed in the FLIPR and a baseline fluorescence measurement (excitation at 488 nm and emission at 510-570 nm) was obtained for 10 seconds before a 100 μl/well agonist or vehicle addition. […] Fluorescence was measured for an additional 2 minutes at 1 second intervals after agonist addition. A final addition of ionomycin (5 μM, final concentration) was made to each well of the FLIPR test plate to establish cell viability and maximum fluorescence of dye-bound cytosolic calcium. […]

With `CCN(C(=O)OC(C)C)c1cc(C(=O)NC(C)c2cnccn2)cc(-c2ccc(C)cc2)c1` (centres unmarked) [Compound 37, Ethyl-[4′-methyl-5-(1-pyrazin-2-yl-ethylcarbamoyl)-biphenyl-3-yl]-carbamic acid isopropyl ester] the “P2X3 (pIC50 values for the P2X3 receptor)” value was 7.12.

In the case of `CCC(CC)C(=O)N(C)c1cc(C(=O)NC(C)c2cnccn2)cc(-c2ccc(C)cc2)c1` (centres unmarked) [Compound 47, 5-[(2-Ethyl-butyryl)-methyl-amino]-4′-methyl-biphenyl-3-carboxylic acid (1-pyrazin-2-yl-ethyl)-amide], the “P2X3 (pIC50 values for the P2X3 receptor)” value was 7.12.
